According to ChEMBL document CHEMBL4814005, “Pragmatic recruitment of memantine as the capping group for the design of HDAC inhibitors: A preliminary attempt to unravel the enigma of glioblastoma” (Eur J Med Chem, 2021):

Columns and labels:
Homo sapiens [1] = organism: Homo sapiens; test: Selectivity ratio of IC50 for human recombinant HDAC3 to IC50 for human recombinant HDAC6
Homo sapiens [2] = organism: Homo sapiens; test: Selectivity ratio of IC50 for human recombinant HDAC1 to IC50 for human recombinant HDAC6
Homo sapiens [3] = organism: Homo sapiens; test: Selectivity ratio of IC50 for human recombinant HDAC8 to IC50 for human recombinant HDAC6

Compound	Selectivity ratio (Homo sapiens [1])	Selectivity ratio (Homo sapiens [2])	Selectivity ratio (Homo sapiens [3])
CC12CC3CC(C)(C1)CC(NC(=O)CCCCCCC(=O)NO)(C3)C2	35	12.3	2.3
CC12CC3CC(C)(C1)CC(NS(=O)(=O)c1ccc(/C=C/C(=O)NO)cc1)(C3)C2	10	9.22	71.6
CC12CC3CC(C)(C1)CC(NCc1ccc(NCc4ccc(C(=O)NO)cc4)cc1)(C3)C2	–	–	199
CC12CC3CC(C)(C1)CC(NCc1ccc(NC(=O)CCCCCCC(=O)NO)cc1)(C3)C2	148	64	118
CC12CC3CC(C)(C1)CC(NCc1ccc(C(=O)NO)cc1)(C3)C2	–	–	2.6

The next lines start with the values.

Selectivity ratio (Homo sapiens [1])	Selectivity ratio (Homo sapiens [2])	Selectivity ratio (Homo sapiens [3])	Compound
36.5	17.3	13.3	CC12CC3CC(C)(C1)CC(NCc1ccc(/C=C/C(=O)NO)cc1)(C3)C2
30.8	18.5	5.99	CC12CC3CC(C)(C1)CC(NS(=O)(=O)c1cccc(/C=C/C(=O)NO)c1)(C3)C2
12.7	19.4	2.6	CC12CC3CC(C)(C1)CC(NC(=O)CCCCCCCCC(=O)NO)(C3)C2
18.2	12.3	4.7	CC12CC3CC(C)(C1)CC(NC(=O)CCCCCCCC(=O)NO)(C3)C2
10.8	11.1	11.5	CC12CC3CC(C)(C1)CC(NCc1cccc(NC(=O)CCCCCCC(=O)NO)c1)(C3)C2
–	78.2	20	CC12CC3CC(C)(C1)CC(NC(=O)CCCCCC(=O)NO)(C3)C2
